# Results: the NIST ThermoML archive (doi:10.1016/j.fluid.2009.06.015)
# Numbers after ± are expanded uncertainties.
# Test: excess molar enthalpy (molar enthalpy of mixing); xn = mol fraction of the nth substance listed
# Settings: 101 kPa, Liquid, Flow calorimetry
structure (smiles),measurement,setting,value
CCCCOCCCC [dibutyl ether] + CCCCO,excess molar enthalpy,"298.15 K, x1 = 0.0501",0.0285 ± 0.00112 kcal/mol
same,excess molar enthalpy,"298.15 K, x1 = 0.1002",0.0564 ± 0.00153 kcal/mol
same,excess molar enthalpy,"298.15 K, x1 = 0.1497",0.0823 ± 0.00198 kcal/mol
same,excess molar enthalpy,"298.15 K, x1 = 0.2003",0.107 ± 0.00239 kcal/mol
same,excess molar enthalpy,"298.15 K, x1 = 0.2503",0.129 ± 0.00287 kcal/mol
same,excess molar enthalpy,"298.15 K, x1 = 0.3004",0.149 ± 0.00335 kcal/mol
same,excess molar enthalpy,"298.15 K, x1 = 0.3498",0.167 ± 0.00359 kcal/mol
same,excess molar enthalpy,"298.15 K, x1 = 0.4006",0.182 ± 0.00406 kcal/mol
same,excess molar enthalpy,"298.15 K, x1 = 0.4507",0.195 ± 0.0043 kcal/mol
same,excess molar enthalpy,"298.15 K, x1 = 0.4997",0.204 ± 0.0043 kcal/mol
same,excess molar enthalpy,"298.15 K, x1 = 0.5506",0.21 ± 0.00454 kcal/mol
same,excess molar enthalpy,"298.15 K, x1 = 0.5998",0.213 ± 0.00454 kcal/mol
same,excess molar enthalpy,"298.15 K, x1 = 0.6505",0.213 ± 0.00454 kcal/mol
same,excess molar enthalpy,"298.15 K, x1 = 0.7",0.209 ± 0.00454 kcal/mol
same,excess molar enthalpy,"298.15 K, x1 = 0.7509",0.199 ± 0.0043 kcal/mol
same,excess molar enthalpy,"298.15 K, x1 = 0.8",0.185 ± 0.00406 kcal/mol
same,excess molar enthalpy,"298.15 K, x1 = 0.8501",0.162 ± 0.00359 kcal/mol
same,excess molar enthalpy,"298.15 K, x1 = 0.8994",0.13 ± 0.00311 kcal/mol
same,excess molar enthalpy,"298.15 K, x1 = 0.9493",0.0789 ± 0.00239 kcal/mol
same,excess molar enthalpy,"313.15 K, x1 = 0.0501",0.034 ± 0.00131 kcal/mol
same,excess molar enthalpy,"313.15 K, x1 = 0.1003",0.0667 ± 0.00179 kcal/mol
same,excess molar enthalpy,"313.15 K, x1 = 0.1498",0.0972 ± 0.00232 kcal/mol
same,excess molar enthalpy,"313.15 K, x1 = 0.2004",0.126 ± 0.00287 kcal/mol
same,excess molar enthalpy,"313.15 K, x1 = 0.2502",0.152 ± 0.00335 kcal/mol
same,excess molar enthalpy,"313.15 K, x1 = 0.3004",0.175 ± 0.00382 kcal/mol
same,excess molar enthalpy,"313.15 K, x1 = 0.3497",0.196 ± 0.0043 kcal/mol
same,excess molar enthalpy,"313.15 K, x1 = 0.4004",0.214 ± 0.00454 kcal/mol
same,excess molar enthalpy,"313.15 K, x1 = 0.4505",0.228 ± 0.00502 kcal/mol
same,excess molar enthalpy,"313.15 K, x1 = 0.4995",0.238 ± 0.00502 kcal/mol
same,excess molar enthalpy,"313.15 K, x1 = 0.5503",0.246 ± 0.00526 kcal/mol
same,excess molar enthalpy,"313.15 K, x1 = 0.5994",0.25 ± 0.00526 kcal/mol
same,excess molar enthalpy,"313.15 K, x1 = 0.6502",0.249 ± 0.00526 kcal/mol
same,excess molar enthalpy,"313.15 K, x1 = 0.6997",0.243 ± 0.00526 kcal/mol
same,excess molar enthalpy,"313.15 K, x1 = 0.7506",0.231 ± 0.00502 kcal/mol
same,excess molar enthalpy,"313.15 K, x1 = 0.7998",0.214 ± 0.00454 kcal/mol
same,excess molar enthalpy,"313.15 K, x1 = 0.8499",0.186 ± 0.00406 kcal/mol
same,excess molar enthalpy,"313.15 K, x1 = 0.8993",0.147 ± 0.00359 kcal/mol
same,excess molar enthalpy,"313.15 K, x1 = 0.9494",0.087 ± 0.00263 kcal/mol
CCCCOCCCC [dibutyl ether] + c1ccccc1,excess molar enthalpy,"298.15 K, x1 = 0.0499",0.0238 ± 0.000837 kcal/mol
same,excess molar enthalpy,"298.15 K, x1 = 0.1001",0.0425 ± 0.0011 kcal/mol
same,excess molar enthalpy,"298.15 K, x1 = 0.1502",0.0565 ± 0.00131 kcal/mol
same,excess molar enthalpy,"298.15 K, x1 = 0.2002",0.067 ± 0.00151 kcal/mol
same,excess molar enthalpy,"298.15 K, x1 = 0.3003",0.0788 ± 0.00174 kcal/mol
same,excess molar enthalpy,"298.15 K, x1 = 0.4003",0.0815 ± 0.00179 kcal/mol
same,excess molar enthalpy,"298.15 K, x1 = 0.5",0.0775 ± 0.00172 kcal/mol
same,excess molar enthalpy,"298.15 K, x1 = 0.6",0.0683 ± 0.00153 kcal/mol
same,excess molar enthalpy,"298.15 K, x1 = 0.6992",0.0554 ± 0.00127 kcal/mol
same,excess molar enthalpy,"298.15 K, x1 = 0.7997",0.0389 ± 0.000932 kcal/mol
same,excess molar enthalpy,"298.15 K, x1 = 0.9",0.0202 ± 0.000598 kcal/mol
same,excess molar enthalpy,"313.15 K, x1 = 0.0504",0.0222 ± 0.000789 kcal/mol
same,excess molar enthalpy,"313.15 K, x1 = 0.0994",0.0393 ± 0.00103 kcal/mol
same,excess molar enthalpy,"313.15 K, x1 = 0.1501",0.0526 ± 0.00124 kcal/mol
same,excess molar enthalpy,"313.15 K, x1 = 0.1993",0.0622 ± 0.00141 kcal/mol
same,excess molar enthalpy,"313.15 K, x1 = 0.2494",0.0691 ± 0.00155 kcal/mol
same,excess molar enthalpy,"313.15 K, x1 = 0.3001",0.0737 ± 0.00163 kcal/mol
same,excess molar enthalpy,"313.15 K, x1 = 0.3493",0.0759 ± 0.00167 kcal/mol
same,excess molar enthalpy,"313.15 K, x1 = 0.4001",0.0764 ± 0.00167 kcal/mol
same,excess molar enthalpy,"313.15 K, x1 = 0.4504",0.0753 ± 0.00167 kcal/mol
same,excess molar enthalpy,"313.15 K, x1 = 0.4998",0.0727 ± 0.0016 kcal/mol
same,excess molar enthalpy,"313.15 K, x1 = 0.5501",0.069 ± 0.00153 kcal/mol
same,excess molar enthalpy,"313.15 K, x1 = 0.5985",0.0642 ± 0.00143 kcal/mol
same,excess molar enthalpy,"313.15 K, x1 = 0.65",0.0583 ± 0.00131 kcal/mol
same,excess molar enthalpy,"313.15 K, x1 = 0.699",0.0517 ± 0.0012 kcal/mol
same,excess molar enthalpy,"313.15 K, x1 = 0.751",0.0443 ± 0.00103 kcal/mol
same,excess molar enthalpy,"313.15 K, x1 = 0.7996",0.0363 ± 0.000884 kcal/mol
same,excess molar enthalpy,"313.15 K, x1 = 0.851",0.0278 ± 0.000717 kcal/mol
same,excess molar enthalpy,"313.15 K, x1 = 0.8982",0.0192 ± 0.000574 kcal/mol
same,excess molar enthalpy,"313.15 K, x1 = 0.9515",0.00906 ± 0.00043 kcal/mol
